Amino acid sequences for entries named in this document (tags omitted).
UniProt P23975, whole entry: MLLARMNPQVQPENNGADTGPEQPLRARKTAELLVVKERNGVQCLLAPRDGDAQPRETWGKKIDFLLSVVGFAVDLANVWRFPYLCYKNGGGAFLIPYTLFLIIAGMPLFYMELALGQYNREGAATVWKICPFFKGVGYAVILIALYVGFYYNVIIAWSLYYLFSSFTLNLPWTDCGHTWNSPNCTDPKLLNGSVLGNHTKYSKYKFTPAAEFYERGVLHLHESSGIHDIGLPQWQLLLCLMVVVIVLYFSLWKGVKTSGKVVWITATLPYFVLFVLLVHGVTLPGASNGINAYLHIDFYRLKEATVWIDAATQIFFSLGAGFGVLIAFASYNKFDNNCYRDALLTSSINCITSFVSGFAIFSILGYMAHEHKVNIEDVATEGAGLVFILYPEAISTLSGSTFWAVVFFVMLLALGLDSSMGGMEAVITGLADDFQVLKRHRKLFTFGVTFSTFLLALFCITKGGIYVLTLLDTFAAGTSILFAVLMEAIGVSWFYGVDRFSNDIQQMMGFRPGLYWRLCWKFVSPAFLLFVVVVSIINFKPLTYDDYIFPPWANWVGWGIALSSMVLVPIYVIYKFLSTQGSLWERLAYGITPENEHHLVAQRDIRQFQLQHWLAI

According to patent US7507717B2 (Xenome Ltd., priority 2002, dated 2009):

How the values were obtained:
[1] = target: T1, human noradrenaline transporter (hNET) (Homo sapiens, UniProt P23975); assay: biochemical; format: binding; details: Av IC50 Displacement of 3H-nisoxetine from hNET
T1 construct: expressed in transfected cells; host or cells: COS-7 cells (ATCC), transient transfection with metafectene

[2] = target: T1, human noradrenaline transporter (hNET); assay: cell-based

SMILES	IC50 [1]	IC50 [2]
CCCC[C@H](NC(=O)CNC(=O)[C@@H](N)CCCN)C(=O)N[C@H]1CSSC[C@@H](C(N)=O)NC(=O)[C@@H]2C[C@@H](O)CN2C(=O)[C@H](Cc2c[nH]cn2)NC(=O)[C@@H]2CSSC[C@H](NC1=O)C(=O)NCC(=O)N[C@@H](Cc1ccc(O)cc1)C(=O)N[C@@H](CCCCN)C(=O)N[C@@H](CCCC)C(=O)N2 [compound 66]	200 nM	91.2 nM
CCCC[C@H](NC(=O)CNC(=O)C[C@@H](N)CCCCN)C(=O)N[C@H]1CSSC[C@@H](C(N)=O)NC(=O)[C@@H]2C[C@@H](O)CN2C(=O)[C@H](Cc2c[nH]cn2)NC(=O)[C@@H]2CSSC[C@H](NC1=O)C(=O)NCC(=O)N[C@@H](Cc1ccc(OC)cc1)C(=O)N[C@@H](CCCCN)C(=O)N[C@@H](CCC(C)C)C(=O)N2 [compound 19]	35.5 nM	44.7 nM
CCCC[C@H](NC(=O)CNC(=O)[C@@H](N)CC(N)=O)C(=O)N[C@H]1CSSC[C@@H](C(N)=O)NC(=O)[C@@H]2C[C@@H](O)CN2C(=O)[C@H](Cc2c[nH]cn2)NC(=O)[C@@H]2CSSC[C@H](NC1=O)C(=O)NCC(=O)N[C@@H](Cc1ccc(O)cc1)C(=O)N[C@@H](CCCCN)C(=O)N[C@@H](CCC(C)C)C(=O)N2 [compound 80]	282 nM	135 nM
CCCC[C@H](NC(=O)CNC(=O)[C@H](CCCNC(=N)N)NC(=O)[C@H](Cc1ccc(O)cc1)NC(=O)[C@@H](N)CCCN)C(=O)N[C@H]1CSSC[C@@H](C(N)=O)NC(=O)[C@@H]2C[C@@H](O)CN2C(=O)[C@H](CCCNC(=N)N)NC(=O)[C@@H]2CSSC[C@H](NC1=O)C(=O)NCC(=O)N[C@@H](Cc1ccc(OC)cc1)C(=O)N[C@@H](CCCCN)C(=O)N[C@@H](CC(C)C)C(=O)N2 [compound 15]	21.9 nM	46.8 nM
CC(C)C[C@H](NC(=O)CNC(=O)[C@@H](N)CC(N)=O)C(=O)N[C@H]1CSSC[C@@H](C(N)=O)NC(=O)[C@@H]2C[C@@H](O)CN2C(=O)[C@H](Cc2c[nH]cn2)NC(=O)[C@@H]2CSSC[C@H](NC1=O)C(=O)NCC(=O)N[C@@H](Cc1ccc(O)cc1)C(=O)N[C@@H](CCCCN)C(=O)N[C@@H](CC(C)C)C(=O)N2 [compound 115]	1120 nM	245 nM
COc1ccc(C[C@@H]2NC(=O)CNC(=O)[C@@H]3CSSC[C@H](NC(=O)[C@H](CC(C)C)NC(=O)[C@H](CCCCN)NC2=O)C(=O)N[C@@H](CCCNC(=N)N)C(=O)N[C@@H](CCCCN)C(=O)N[C@H](C(N)=O)CSSC[C@H](NC(=O)[C@H](CC(C)C)NC(=O)CNC(=O)[C@H](CCCNC(=N)N)NC(=O)[C@@H](N)Cc2c[nH]c4ccccc24)C(=O)N3)cc1 [compound 36]	97.7 nM	85.1 nM
COc1ccc(C[C@@H]2NC(=O)CNC(=O)[C@@H]3CSSC[C@H](NC(=O)[C@H](CC(C)C)NC(=O)[C@H](CCCCN)NC2=O)C(=O)N[C@@H](Cc2c[nH]cn2)C(=O)N2C[C@H](O)C[C@H]2C(=O)N[C@H](C(N)=O)CSSC[C@H](NC(=O)[C@@H](NC(=O)CNC(=O)[C@H](CCCNC(=N)N)NC(=O)[C@@H](N)Cc2c[nH]c4ccccc24)C(C)C)C(=O)N3)cc1 [compound 20]	38 nM	25.7 nM
CCCC[C@H](NC(=O)CNC(=O)[C@H](Cc1ccc(O)cc1)NC(=O)[C@H](CCCNC(=N)N)NC(=O)[C@@H](N)Cc1ccccc1)C(=O)N[C@H]1CSSC[C@@H](C(N)=O)NC(=O)[C@@H]2C[C@@H](O)CN2C(=O)[C@H](CCCNC(=N)N)NC(=O)[C@@H]2CSSC[C@H](NC1=O)C(=O)NCC(=O)N[C@@H](Cc1ccc(OC)cc1)C(=O)N[C@@H](CCCCN)C(=O)N[C@@H](CC(C)C)C(=O)N2 [compound 22]	42.7 nM	81.3 nM
CC(C)C[C@@H]1NC(=O)[C@H](CCCCN)NC(=O)[C@H](Cc2ccc(O)cc2)NC(=O)CNC(=O)[C@@H]2CSSC[C@H](NC1=O)C(=O)N[C@@H](Cc1c[nH]cn1)C(=O)N1C[C@H](O)C[C@H]1C(=O)N[C@H](C(N)=O)CSSC[C@H](NC(=O)[C@@H](NC(=O)CNC(=O)[C@H](CC(N)=O)NC(=O)[C@@H]1CCC(=O)N1)C(C)C)C(=O)N2 [compound 157]	4680 nM	759 nM
CC(C)C[C@@H]1NC(=O)[C@H](CCCCN)NC(=O)[C@H](Cc2ccc(O)cc2)NC(=O)CNC(=O)[C@@H]2CSSC[C@H](NC1=O)C(=O)N[C@@H](Cc1c[nH]cn1)C(=O)N1C[C@H](O)C[C@H]1C(=O)N[C@H](C(N)=O)CSSC[C@H](NC(=O)[C@@H](NC(=O)CNC(=O)[C@H](CC(N)=O)NC(=O)[C@@H](N)Cc1ccc(O)cc1)C(C)C)C(=O)N2 [compound 88]	331 nM	135 nM
CC(C)C[C@@H]1NC(=O)[C@H](CCCCN)NC(=O)[C@H](CCc2ccc(O)cc2)NC(=O)CNC(=O)[C@@H]2CSSC[C@H](NC1=O)C(=O)N[C@@H](Cc1c[nH]cn1)C(=O)N1C[C@H](O)C[C@H]1C(=O)N[C@H](C(N)=O)CSSC[C@H](NC(=O)[C@@H](NC(=O)CNC(=O)[C@@H](N)CC(N)=O)C(C)C)C(=O)N2 [compound 168]	9120 nM	2630 nM
CCCC[C@H](N)C(=O)NCC(=O)N[C@H](C(=O)N[C@H]1CSSC[C@@H](C(N)=O)NC(=O)[C@@H]2C[C@@H](O)CN2C(=O)[C@H](Cc2c[nH]cn2)NC(=O)[C@@H]2CSSC[C@H](NC1=O)C(=O)NCC(=O)N[C@@H](Cc1ccc(O)cc1)C(=O)N[C@@H](CCCCN)C(=O)N[C@@H](CC(C)C)C(=O)N2)C(C)C [compound 119]	1170 nM	479 nM
CC[C@H](NC(=O)CNC(=O)[C@@H](N)CC(N)=O)C(=O)N[C@H]1CSSC[C@@H](C(N)=O)NC(=O)[C@@H]2C[C@@H](O)CN2C(=O)[C@H](Cc2c[nH]cn2)NC(=O)[C@@H]2CSSC[C@H](NC1=O)C(=O)NCC(=O)N[C@@H](Cc1ccc(O)cc1)C(=O)N[C@@H](CCCCN)C(=O)N[C@@H](CC(C)C)C(=O)N2 [compound 160]	5010 nM	912 nM
CC(C)C[C@@H]1NC(=O)[C@H](CCCCN)NC(=O)[C@H](Cc2ccc(O)cc2)NC(=O)CNC(=O)[C@@H]2CSSC[C@H](NC1=O)C(=O)N[C@@H](Cc1c[nH]cn1)C(=O)N1C[C@H](O)C[C@H]1C(=O)N[C@H](C(N)=O)CSSC[C@H](N)C(=O)N2 [compound 173]	12900 nM	4170 nM
COc1ccc(C[C@@H]2NC(=O)CNC(=O)[C@@H]3CSSC[C@H](NC(=O)[C@H](CC(C)C)NC(=O)[C@H](CCCCN)NC2=O)C(=O)N[C@@H](Cc2c[nH]cn2)C(=O)N2C[C@H](O)C[C@H]2C(=O)N[C@H](C(N)=O)CSSC[C@H](NC(=O)[C@@H](NC(=O)CNC(=O)[C@@H](N)CC(N)=O)C(C)C)C(=O)N3)cc1 [compound 123]	1350 nM	355 nM
COc1ccc(C[C@@H]2NC(=O)CNC(=O)[C@@H]3CSSC[C@H](NC(=O)[C@H](CC(C)C)NC(=O)[C@H](CCCCN)NC2=O)C(=O)N[C@@H](Cc2c[nH]cn2)C(=O)N2C[C@H](O)C[C@H]2C(=O)N[C@H](C(N)=O)CSSC[C@H](NC(=O)[C@H](CC(C)C)NC(=O)CNC(=O)[C@@H](N)CCCN)C(=O)N3)cc1 [compound 51]	145 nM	77.6 nM
CCCC[C@H](NC(=O)CNC(=O)C[C@@H](N)CCCCN)C(=O)N[C@H]1CSSC[C@@H](C(N)=O)NC(=O)[C@@H]2C[C@@H](O)CN2C(=O)[C@H](Cc2c[nH]cn2)NC(=O)[C@@H]2CSSC[C@H](NC1=O)C(=O)NCC(=O)N[C@@H](Cc1ccc(OC)cc1)C(=O)N[C@@H](CCCCN)C(=O)N[C@@H](CC(C)C)C(=O)N2 [compound 32]	87.1 nM	69.2 nM
